Assay: Phase 1 MAD study of ALT-801: adverse events (TEAEs), safety overview
Settings: M2 1.8 mg (N = 9)

Compound: CC[C@H](C)[C@H](NC(=O)[C@H](Cc1ccccc1)NC(=O)[C@H](CCC(=O)O)NC(=O)[C@@H]1CCCCNC(=O)CC[C@H](NC(=O)[C@H](CC(=O)O)NC(=O)[C@H](CC(C)C)NC(=O)[C@H](Cc2ccc(O)cc2)NC(=O)[C@H](CCCCN)NC(=O)[C@H](CO)NC(=O)[C@H](Cc2ccc(O)cc2)NC(=O)[C@H](CC(=O)O)NC(=O)[C@H](CO)NC(=O)[C@@H](NC(=O)[C@H](Cc2ccccc2)NC(=O)[C@@H](NC(=O)CNC(=O)[C@H](CCC(N)=O)NC(=O)C(C)(C)NC(=O)[C@@H](N)Cc2c[nH]cn2)[C@@H](C)O)[C@@H](C)O)C(=O)N[C@@H](CCCCNC(=O)[C@H]2O[C@@H](OCCCCCCCCCCCCCCCCCC(=O)O)[C@H](O)[C@@H](O)[C@@H]2O)C(=O)N[C@@H](C)C(=O)N[C@@H](C)C(=O)N1)C(=O)N[C@@H](CCC(N)=O)C(=O)N[C@@H](Cc1c[nH]c2ccccc12)C(=O)N[C@@H](CC(C)C)C(=O)N[C@@H](CC(C)C)C(=O)N[C@@H](CCC(N)=O)C(=O)N[C@H](C(N)=O)[C@@H](C)O [ALT-801, pemvidutide]
- TEAE Diarrhoea; Moderate; %: (0.0%)
- TEAE Diarrhoea; Moderate; n: 0
- TEAE Diarrhoea; PLT; %: (0.0%)
- TEAE Diarrhoea; PLT; n: 0
- TEAE Diarrhoea; Severe; %: (0.0%)
- TEAE Diarrhoea; Severe; n: 0
- TEAE Dyspepsia; Mild; %: (0.0%)
- TEAE Dyspepsia; Mild; n: 0
- TEAE Dyspepsia; Moderate; %: (0.0%)
- TEAE Dyspepsia; Moderate; n: 0
- TEAE Dyspepsia; PLT; %: (0.0%)
- TEAE Dyspepsia; PLT; n: 0
- TEAE Dyspepsia; Severe; %: (0.0%)
- TEAE Dyspepsia; Severe; n: 0
- TEAE Early satiety; Mild; %: (0.0%)
- TEAE Early satiety; Mild; n: 0
- TEAE Early satiety; Moderate; %: (0.0%)
- TEAE Early satiety; Moderate; n: 0
- TEAE Early satiety; PLT; %: (0.0%)
- TEAE Early satiety; PLT; n: 0
- TEAE Early satiety; Severe; %: (0.0%)
- TEAE Early satiety; Severe; n: 0
- TEAE Eye disorders; Mild; %: (0.0%)
- TEAE Eye disorders; Mild; n: 0
- TEAE Eye disorders; Moderate; %: (0.0%)
- TEAE Eye disorders; Moderate; n: 0
- TEAE Eye disorders; PLT; %: (0.0%)
- TEAE Eye disorders; PLT; n: 0
- TEAE Eye disorders; Severe; %: (0.0%)
- TEAE Eye disorders; Severe; n: 0
- TEAE Eye pain; Mild; %: (0.0%)
- TEAE Eye pain; Mild; n: 0
- TEAE Eye pain; Moderate; %: (0.0%)
- TEAE Eye pain; Moderate; n: 0
- TEAE Eye pain; PLT; %: (0.0%)
- TEAE Eye pain; PLT; n: 0
- TEAE Eye pain; Severe; %: (0.0%)
- TEAE Eye pain; Severe; n: 0
- TEAE Fatigue; Mild; %: (11.1%)
- TEAE Fatigue; Mild; n: 1
- TEAE Fatigue; Moderate; %: (0.0%)
- TEAE Fatigue; Moderate; n: 0
- TEAE Fatigue; PLT; %: (0.0%)
- TEAE Fatigue; PLT; n: 0
- TEAE Fatigue; Severe; %: (0.0%)
- TEAE Fatigue; Severe; n: 0
- TEAE Food poisoning; Mild; %: (0.0%)
- TEAE Food poisoning; Mild; n: 0
- TEAE Food poisoning; Moderate; %: (11.1%)
- TEAE Food poisoning; Moderate; n: 1
- TEAE Food poisoning; PLT; %: (0.0%)
- TEAE Food poisoning; PLT; n: 0
- TEAE Food poisoning; Severe; %: (0.0%)
- TEAE Food poisoning; Severe; n: 0
- TEAE Fungal infection; Mild; %: (0.0%)
- TEAE Fungal infection; Mild; n: 0
- TEAE Fungal infection; Moderate; %: (0.0%)
- TEAE Fungal infection; Moderate; n: 0
- TEAE Fungal infection; PLT; %: (0.0%)
- TEAE Fungal infection; PLT; n: 0
- TEAE Fungal infection; Severe; %: (0.0%)
- TEAE Fungal infection; Severe; n: 0
- TEAE Fungal skin; Mild; %: (0.0%)
- TEAE Fungal skin; Mild; n: 0
- TEAE Gastrointestinal disorders; Mild; %: (55.6%)
- TEAE Gastrointestinal disorders; Mild; n: 5
- TEAE Gastrointestinal disorders; Moderate; %: (33.3%)
- TEAE Gastrointestinal disorders; Moderate; n: 3
- TEAE Gastrointestinal disorders; PLT; %: (0.0%)
- TEAE Gastrointestinal disorders; PLT; n: 0
- TEAE Gastrointestinal disorders; Severe; %: (0.0%)
- TEAE Gastrointestinal disorders; Severe; n: 0
- TEAE Haematemesis; Mild; %: (0.0%)
- TEAE Haematemesis; Mild; n: 0
- TEAE Haematemesis; Moderate; %: (0.0%)
- TEAE Haematemesis; Moderate; n: 0
- TEAE Haematemesis; PLT; %: (0.0%)
- TEAE Haematemesis; PLT; n: 0
- TEAE Haematemesis; Severe; %: (0.0%)
- TEAE Haematemesis; Severe; n: 0
- TEAE Infections and infestations; Mild; %: (33.3%)
- TEAE Infections and infestations; Mild; n: 3
- TEAE Infections and infestations; Moderate; %: (0.0%)
- TEAE Infections and infestations; Moderate; n: 0
- TEAE Infections and infestations; PLT; %: (0.0%)
- TEAE Infections and infestations; PLT; n: 0
- TEAE Infections and infestations; Severe; %: (0.0%)
- TEAE Infections and infestations; Severe; n: 0
- TEAE Injection site bruising; Mild; %: (0.0%)
- TEAE Injection site bruising; Mild; n: 0
